Test results: PubChem BioAssay AID540276 (National Center for Advancing Translational Sciences (NCATS), 2011)
Values joined by “and” are separate entries in the source; they are usually repeats but may differ in a detail not shown here. Identical values can stand only once. Among all 300,000 compounds or so, about 5,400 (1.8%) were called active. The source calls these results inconclusive, neither active nor inactive. The call rests on the fitted dose curve; tested in HEK293 cells.

Assay: qHTS for inhibitors of binding or entry into cells for Marburg Virus
Details: Marburg virus pseudotyped entry inhibition, cell reporter; activity change, negative = inhibition: at 46.1 µM (top of the series) unless noted
On the % scale 0 is the no-effect control and ±100 the full control effect; potency means the concentration at half of the fitted maximal effect.

Structure (SMILES) | Potency | activity change, negative = inhibition
CCc1nc2c(n1)c1c(non1O)c1c2no[n+]1[O-] | inconclusive: 10 µM | –
Cn1c(=O)[nH]c(=O)c2c1nc(Br)n2Cc1ccccc1 | inconclusive: 2.82 µM | –
CCN(N=Nc1nonc1N)c1nonc1N | inconclusive: 0.251 µM | –
COc1ccccc1OP(=O)(Nc1ccc(C)cn1)Oc1ccccc1OC | inconclusive: 35.5 µM | –
Clc1ccc(Cl)c(NC2=NCC(CBr)S2)c1 (configuration not stated) | – | inconclusive: -6.11%
CC(C)CC(=O)NC(Sc1ccc(Cl)cc1)C(Cl)(Cl)Cl (configuration not stated) | inconclusive: 32.6 µM | –
O=P1(Nc2nc3ccc(Cl)cc3s2)COc2ccccc2O1 (configuration not stated) | inconclusive: 7.94 µM | –
CC(=O)c1ccc(N2CC2c2ccncc2)cc1 (configuration not stated) | inconclusive: 6.31 µM | –
Cc1ccccc1CN(C)C(=O)COC(=O)C(O)(c1ccccc1)c1ccccc1 | inconclusive: 3.55 µM | –
c1ccc(-c2nn[nH]n2)c(-c2nn[nH]n2)c1 | inconclusive: 35.5 µM | –
CC(=O)NC(SC(=S)N(CC(C)C)CC(C)C)C(Cl)(Cl)Cl (configuration not stated) | inconclusive: 3.55 µM | –
Cc1ccc(OP(=O)(Nc2ccccn2)Oc2ccc(C)cc2)cc1 | inconclusive: 22.4 µM | –
O=c1c2cc([N+](=O)[O-])ccc2[nH]c2c([N+](=O)[O-])cc([N+](=O)[O-])cc12 | inconclusive: 14.1 µM | –
Cc1ccccc1OP(=O)(Nc1ccccn1)Oc1ccccc1C | inconclusive: 35.5 µM | –
COc1ccc(N)c([N+](=O)[O-])c1[N+](=O)[O-] | inconclusive: 6.31 µM | –
O=P(Nc1ccccn1)(c1ccc(Br)cc1)c1ccc(Br)cc1 | inconclusive: 11.2 µM | –
CC(=O)NC(SC(=S)N(C)C)C(Cl)(Cl)Cl (configuration not stated) | inconclusive: 29.1 µM | –
O=C(OC1CN2CCC1CC2)c1cccc(Cl)c1 (configuration not stated) | inconclusive: 10.3 µM | –
CN(CCCl)Cc1cc(Cl)c(NC2=NCCN2)c(Cl)c1 | inconclusive: 16.4 µM and inconclusive: 5.01 µM | –

Structure (SMILES) | Potency | activity change, negative = inhibition
CCOP(=O)(NC(=NC(C)c1ccccc1)NC(C)c1ccccc1)OCC (configuration not stated) | inconclusive: 10 µM | –
COc1ccccc1CNC(=O)COC(=O)C(O)(c1ccccc1)c1ccccc1 | inconclusive: 35.5 µM | –
CC1CCC(C(C)C)C(OP(=O)(Nc2ccccn2)c2ccccc2)C1 (configuration not stated) | inconclusive: 11.2 µM | –
O=P(Nc1nccs1)(c1ccccc1)c1nc2ccccc2s1 (configuration not stated) | inconclusive: 35.5 µM | –
CN(C)C(=O)c1cc([N+](=O)[O-])cc2c1-c1c(cc([N+](=O)[O-])cc1[N+](=O)[O-])C2=O | inconclusive: 11.2 µM | –
CN(C(=O)Cc1ccccc1)[C@@H]1CC[C@]2(CCCO2)C[C@H]1N1CCCC1 | inconclusive: 1.12 µM | –
COc1cc(C(=O)NCC2(N3CCOCC3)CCCCC2)cc(Cl)c1OC(C)C | inconclusive: 8.91 µM | –
CN(C(=O)Cc1ccc(Cl)c(Cl)c1)[C@@H]1CC[C@]2(CCCO2)C[C@H]1N1CCCC1 | inconclusive: 29.1 µM | –
Cc1ccc(NCCc2c([N+](=O)[O-])cc([N+](=O)[O-])cc2[N+](=O)[O-])cc1 | – | inconclusive: -69.6% [at 37.8 µM]
Cc1cc(=O)[nH]c(N[N+](=O)[O-])n1 | inconclusive: 3.55 µM | –
O=C(OC1CN2CCC1CC2)C12CC3CC(CC(C3)C1)C2 (configuration not stated) | inconclusive: 20 µM | –
O=P1(N(CCCl)CCCl)Nc2ccccc2N1 | inconclusive: 8.91 µM | –
O=P1(N(CCCl)CCCl)OCCCN1CCCl (configuration not stated) | inconclusive: 14.1 µM | –
O=[N+]([O-])c1cc(Oc2ccc([N+](=O)[O-])cc2C(F)(F)F)cc([N+](=O)[O-])c1 | inconclusive: 8.91 µM | –
COC(=O)C1(C)COP(=O)(N2CCCCCC2)OC1 (configuration not stated) | inconclusive: 35.5 µM | –
O=[N+]([O-])c1cc([N+](=O)[O-])c(-c2ccn[nH]2)s1 | inconclusive: 16.4 µM | –
O=P(Nc1ccccn1)(c1cccc2ccccc12)c1cccc2ccccc12 | inconclusive: 10 µM | –
O=C(OC1CN2CCC1CC2)c1cccc([N+](=O)[O-])c1 (configuration not stated) | inconclusive: 8.91 µM | –
